Molecular target: Sucrase-isomaltase, intestinal (Rattus norvegicus, UniProt P23739)
Assay: Inhibition of rat intestinal isomaltase

By UniProt entry, the sequences of proteins in these tests, tags left out. Residues count along the entry.
UniProt P23739, 1014-1841 limits assumed: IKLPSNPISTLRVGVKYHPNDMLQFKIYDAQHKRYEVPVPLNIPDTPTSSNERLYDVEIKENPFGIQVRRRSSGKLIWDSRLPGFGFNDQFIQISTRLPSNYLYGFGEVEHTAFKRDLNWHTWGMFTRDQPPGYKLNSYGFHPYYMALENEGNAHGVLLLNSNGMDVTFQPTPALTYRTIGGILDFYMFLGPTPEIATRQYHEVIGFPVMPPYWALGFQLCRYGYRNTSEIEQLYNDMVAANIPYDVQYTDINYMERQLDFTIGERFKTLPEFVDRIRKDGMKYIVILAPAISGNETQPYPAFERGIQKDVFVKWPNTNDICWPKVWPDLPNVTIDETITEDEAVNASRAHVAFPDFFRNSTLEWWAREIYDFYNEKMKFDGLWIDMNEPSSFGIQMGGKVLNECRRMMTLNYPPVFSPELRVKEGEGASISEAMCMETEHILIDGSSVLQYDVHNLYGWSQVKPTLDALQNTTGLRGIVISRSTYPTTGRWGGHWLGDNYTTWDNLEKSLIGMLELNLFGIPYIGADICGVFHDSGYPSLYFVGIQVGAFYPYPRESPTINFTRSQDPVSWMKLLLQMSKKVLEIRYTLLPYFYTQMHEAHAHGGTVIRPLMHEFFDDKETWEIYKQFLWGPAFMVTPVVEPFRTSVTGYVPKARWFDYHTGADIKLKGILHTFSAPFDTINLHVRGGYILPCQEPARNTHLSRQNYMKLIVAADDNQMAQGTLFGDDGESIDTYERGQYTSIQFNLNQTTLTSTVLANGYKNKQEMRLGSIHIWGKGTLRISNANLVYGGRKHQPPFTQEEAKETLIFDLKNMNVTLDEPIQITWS
UniProt P23739, 1-1013 limits assumed: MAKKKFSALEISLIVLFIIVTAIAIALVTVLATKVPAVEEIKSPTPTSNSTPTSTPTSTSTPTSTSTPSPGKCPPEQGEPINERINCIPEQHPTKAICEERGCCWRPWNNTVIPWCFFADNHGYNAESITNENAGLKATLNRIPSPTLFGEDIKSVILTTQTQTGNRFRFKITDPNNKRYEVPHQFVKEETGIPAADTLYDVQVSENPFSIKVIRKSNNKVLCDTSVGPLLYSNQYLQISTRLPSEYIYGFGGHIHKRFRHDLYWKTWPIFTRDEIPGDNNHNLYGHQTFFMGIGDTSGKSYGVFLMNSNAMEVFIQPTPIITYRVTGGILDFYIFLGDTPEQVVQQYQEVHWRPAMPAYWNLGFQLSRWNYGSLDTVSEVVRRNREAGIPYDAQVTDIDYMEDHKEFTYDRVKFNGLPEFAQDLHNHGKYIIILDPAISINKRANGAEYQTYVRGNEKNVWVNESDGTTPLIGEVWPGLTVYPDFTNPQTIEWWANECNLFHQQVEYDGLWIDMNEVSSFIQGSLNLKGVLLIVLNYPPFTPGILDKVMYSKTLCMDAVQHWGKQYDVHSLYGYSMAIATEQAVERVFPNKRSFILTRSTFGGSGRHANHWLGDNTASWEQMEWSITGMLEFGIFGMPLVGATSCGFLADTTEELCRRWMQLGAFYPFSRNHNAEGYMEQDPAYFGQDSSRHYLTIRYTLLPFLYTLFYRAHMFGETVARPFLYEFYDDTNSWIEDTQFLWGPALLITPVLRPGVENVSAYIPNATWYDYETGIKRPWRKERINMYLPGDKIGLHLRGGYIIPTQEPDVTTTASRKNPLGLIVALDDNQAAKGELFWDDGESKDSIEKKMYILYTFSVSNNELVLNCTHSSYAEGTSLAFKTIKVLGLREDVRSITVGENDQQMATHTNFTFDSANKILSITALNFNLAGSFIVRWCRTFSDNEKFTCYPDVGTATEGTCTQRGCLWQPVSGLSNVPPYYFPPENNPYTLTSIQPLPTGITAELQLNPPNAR

IC50: 155 µM
SMILES: C[C@H]1O[C@H](O[C@H]2[C@H](O)[C@@H](O)[C@@H](O[C@H]3[C@H](O)[C@@H](O)[C@H](O)O[C@@H]3CO)O[C@@H]2CO)[C@H](O)[C@@H](O)[C@@H]1N[C@H]1C=C(CO)[C@@H](O)[C@H](O)[C@H]1O [(2R,3R,4R,5S,6R)-5-((2R,3R,4R,5S,6R)-5-((2R,3R,4S,5S,6R)-3,4-dihydroxy-6-methyl-5-((1S,4S,5S,6S)-4,5,6-trihydroxy-3-(hydroxymethyl)cyclohex-2-enylamino)-tetrahydro-2H-pyran-2-yloxy)-3,4-dihydroxy-6-(hydroxymethyl)-tetrahydro-2H-pyran-2-yloxy)-6-(hydroxymethyl)-tetrahydro-2H-pyran-2,3,4-triol]

From BindingDB's records for doi:10.1016/j.bmc.2011.01.052 (Kinki University, 2011)
